Molecular target: Human recombinant cathepsin K (Homo sapiens, UniProt P43235)
Experiment: In vitro cathepsin Ki inhibition measurements
Format: biochemical
Conditions: read-out: Ki (nM) vs Human Cathepsin K, Table 2, prior art WO-A-02057270 examples

The chains behind the UniProt entries cited, without tags or fusion partners. Residues count along the entry.
UniProt P43235, 115-329 limits assumed: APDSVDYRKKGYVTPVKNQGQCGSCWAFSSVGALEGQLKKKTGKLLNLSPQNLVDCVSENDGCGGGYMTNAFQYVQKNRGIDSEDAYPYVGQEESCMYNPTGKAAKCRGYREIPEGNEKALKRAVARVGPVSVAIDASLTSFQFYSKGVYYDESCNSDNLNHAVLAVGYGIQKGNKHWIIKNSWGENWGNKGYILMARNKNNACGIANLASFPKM

Row | SMILES | Ki [nM]
1 | O=C(N[C@@H](Cc1ccccc1)C(=O)N1CC[C@H]2OCC(=O)[C@H]21)c1ccsc1 | > 4000
2 | O=C(N[C@@H](Cc1ccccc1)C(=O)N1CC[C@H]2OCC(=O)[C@H]21)c1cc2ccccc2s1 | > 2500
3 | O=C(N[C@@H](Cc1ccc(O)cc1)C(=O)N1CC[C@H]2OCC(=O)[C@H]21)c1cccc2ccccc12 | > 15000
4 | O=C(N[C@@H](Cc1ccc(F)cc1)C(=O)N1CC[C@H]2OCC(=O)[C@H]21)c1ccc(-c2cccs2)cc1 | > 17000
5 | O=C(N[C@@H](Cc1ccccc1)C(=O)N1CC[C@H]2OCC(=O)[C@H]21)c1ccccc1 | > 7500
6 | CC(C)C[C@H](NC(=O)N1CCOCC1)C(=O)N1CC[C@H]2OCC(=O)[C@H]21 | > 1500
7 | CC(C)(C)c1ccc(C(=O)N[C@@H](Cc2ccc(F)cc2)C(=O)N2CC[C@H]3OCC(=O)[C@H]32)cc1 | > 2500
8 | O=C(CCc1ccccc1)N[C@@H](CSCc1ccccc1)C(=O)N1CC[C@H]2OCC(=O)[C@H]21 | > 20000

The remaining lines, values ahead:

Row | Ki [nM] | SMILES
9 | > 25000 | O=C(N[C@@H](Cc1ccc(O)cc1)C(=O)N1CC[C@H]2OCC(=O)[C@H]21)c1ccsc1
10 | > 6000 | O=C(N[C@@H](CC1CCCCC1)C(=O)N1CC[C@H]2OCC(=O)[C@H]21)c1ccoc1
11 | > 16000 | O=C(CCc1ccccc1)N[C@@H](CC1CCCCC1)C(=O)N1CC[C@H]2OCC(=O)[C@H]21
12 | > 1500 | O=C(N[C@@H](CC1CCCC1)C(=O)N1CC[C@H]2OCC(=O)[C@H]21)c1ccsc1
